Assay results from patent publication US9493474B2, “Inhibitors of the renal outer medullary potassium channel” (Merck Sharp & Dohme Corp., priority 2011, dated 2016).

Chains of the proteins cited; added tags and fusions are not shown.
UniProt P48048, whole entry, species assumed: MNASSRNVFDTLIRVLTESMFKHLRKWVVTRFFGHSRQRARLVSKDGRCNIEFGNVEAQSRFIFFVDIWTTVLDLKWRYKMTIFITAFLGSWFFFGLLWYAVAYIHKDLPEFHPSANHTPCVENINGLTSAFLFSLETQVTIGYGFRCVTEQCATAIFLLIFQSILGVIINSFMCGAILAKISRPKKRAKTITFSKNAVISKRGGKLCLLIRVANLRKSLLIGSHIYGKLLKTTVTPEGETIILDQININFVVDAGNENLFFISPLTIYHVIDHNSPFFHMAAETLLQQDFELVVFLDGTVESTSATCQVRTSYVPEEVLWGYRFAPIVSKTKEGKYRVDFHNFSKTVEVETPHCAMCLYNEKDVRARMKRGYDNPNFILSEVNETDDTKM

Tests used:
Kir1.1 (ROMK1) = Kir1.1 (ROMK1) (Homo sapiens (Human), UniProt P48048); assay: Electrophysiology Assay (whole cell voltage clamp, IonWorks Quattro); type: cell-based; conditions: Chinese hamster ovary cells stably expressing Kir1.1; block at voltage step to 0 mV, 6 minutes compound incubation; read-out: EP Assay IC50
Description: (§1) Several assays may be used to measure functional inhibition of the ROMK channel by compounds of the instant invention. One assay that can be used is an electrophysiology assay that measures the electrical current that is generated as potassium permeates through the channel. Another ROMK functional assay makes use of the ability of thallium to permeate through open ROMK channels and increase the fluorescence of a dye previously loaded into the cells. Under control conditions, cells loaded with dye and exposed to thallium-containing medium display a time-dependent increase in fluorescence, the rate of which depends on number of functional channels. When cells are incubated in the presence of a channel inhibitor, the increase in fluorescence is attenuated in a concentration-dependent manner, and IC50 values of inhibition by compounds can be accurately determined. This assay has been established with cell lines expressing either human, or rat ROMK channels, and operates in 384-well format.
Block of Kir1.1 (ROMK1) currents was examined by whole cell voltage clamp (Hamill et. al. Pfluegers Archives 391:85-100 (1981)) using the IonWorks® Quattro automated electrophysiology platform (Molecular Devices, Sunnyvale, Calif.). Chinese hamster ovary cells stably expressing Kir1.1 channels were maintained in T-75 flasks in cell culture media in a humidified 10% CO2 incubator at 37° C. Prior to an experiment, Kir1.1 expression was induced by overnight incubation with 1 mM sodium butyrate. On the day of the experiment, cells were dissociated with 2.5 ml of Versene™ (Invitrogen 15040-066) for approximately 6 minutes at 37° C. and suspended in 10 ml of bath solution containing (in mM): 150 NaCl, 10 KCl, 2.7 CaCl2, 0.5 MgCl2, 5 HEPES, pH 7.4. After centrifugation, the cell pellet was resuspended in approximately 4.0 ml of bath solution and placed in the IonWorks® instrument. The intracellular solution consisted of (in mM): 80 K gluconate, 40 KCl, 20 KF, 3.2 MgCl2, 3 EGTA, 5 Hepes, pH 7.4. Electrical access to the cytoplasm was achieved by perforation in 0.13 mg/ml amphotericin B for 4 minutes. Amphotericin B (Sigma A-4888) was prepared as a 40 mg/ml solution in DMSO.
Voltage protocols and current recordings were performed using the IonWorks® HT software/hardware system. Currents were sampled at 1 kHz. No correction for liquid junction potentials was used. […] Current amplitudes were measured using the IonWorks® software. To assess compound potency, the fractional block during the voltage step to 0 mV was calculated in Microsoft® Excel (Microsoft, Redmond, Calif.), and dose-response curves were fitted with Igor Pro 4.0 (WaveMetrics, Lake Oswego, Oreg.). […]

hROMK (hKir1.1) = hROMK (hKir1.1) (Homo sapiens (Human), UniProt P48048); assay: Thallium Flux Assay; type: cell-based; conditions: HEK293 cells stably expressing hROMK (hKir1.1); FLIPR-Tetra, 30 min compound incubation
Description: as §1
HEK293 cells stably expressing hROMK (hKir1.1) were grown at 37° C. in a 10% CO2 humidified incubator in complete growth media: Dulbecco's Modified Eagle Medium supplemented with non-essential amino acids, Penicillin/Streptomycin/Glutamine, G418 and FBS. At >80% confluency, the media was aspirated from the flask and the sample was rinsed with 10 ml Calcium/Magnesium-free PBS. […] To dislodge the cell, the side of the flask was gently banged with a hand. The cells were triturated completely and then transferred to 25 ml complete media. The sample was then centrifuged at 1,500 rpm for 6 minutes, followed by resuspension in complete growth media and then cell concentration was determined. […] Under ideal growth conditions and appropriate tissue culture practices, this cell line is stable for 40-45 passages.
• FluxOR™ Reagent (Component A) • FluxOR™ Assay Buffer (Component B)—10× Concentrate • PowerLoad™ Concentrate (Component C)—100× Concentrate • Probenecid (Component D)—Lyophilized sample is kept at −20° C. Water soluble, 100× after solubilization in 1 ml water. […] Store at 4° C. • Thallium sulfate (Tl2SO4) Concentrate (Component G)—50 mM in water. […] Can be stored at room temperature • Stimulant Buffer (prepared at 5× final concentration in 1× FluxOR™ Chloride-Free Buffer): 7.5 mM Thallium sulfate and 0.75 mM Potassium sulfate (to give a final assay concentration of 3 mM Thallium/0.3 mM Potassium). Store at 4° C. when not in use. If kept sterile, this solution is good for months. Assay Protocol—
The ROMK channel functional thallium flux assay is performed in 384 wells, using the FLIPR-Tetra instrument. HEK-hKir1.1 cells are seeded in Poly-D-Lysine microplates and kept in a 37° C.-10% CO2 incubator overnight. On the day of the experiment, the growth media is replaced with the FluxOR™ reagent loading buffer and incubated, protected from light, at ambient temperature (23-25° C.) for 90 min. The loading buffer is replaced with assay buffer±test compound followed by 30 min incubation at ambient temperature, where the Thallium/Potassium stimulant is added to the microplate.
• 1. Seed HEK-hKir1.1 cells (50 μl at 20,000 cells/well) in 384-well PDL coated Microplates • 2. Allow cells to adhere overnight in humidified 37° C./10% CO2 incubator • 3. Completely remove cell growth media from microplate and replace with 25 μl loading buffer • 4. Incubate Microplate at room temperature, protected form light, for 90 min • 5. Remove loading buffer and replace with 25 μl 1× Assay Buffer±test compound. • 6. Incubate microplate at room temperature, protected form light, for 30 min • 7. […] Excitation=400 nm, Emission=460 & 580 nm. Collect data for 10 min. Data Calculation—
The fluorescence intensity of wells containing 3 μM of a standard control ROMK inhibitor of the present invention is used to define the ROMK-sensitive component of thallium flux. Fluorescence in the presence of test compounds is normalized to control values to provide % fluorescence change.

IC50 (Kir1.1 (ROMK1)) [µM]	IC50 (hROMK (hKir1.1)) [µM]	Structure (SMILES)
1		Cc1c([C@@H](O)CN2CCCC3(CCCN(C(=O)c4ccc(S(C)(=O)=O)nc4)C3)C2)ccc2c1COC2=O (stereo partly drawn) [Example 21, 5-((1R)-1-Hydroxy-2-(8-(6-(methylsulfonyl)nicotinoyl)-2,8-diazaspiro[5.5]undecan-2-yl)ethyl)-4-methylisobenzofuran-1(3H)-one]
0.031	0.0863	Cc1c([C@@H](O)CN2CCCC3(CCCN(C(=O)c4ccc(-n5cnnn5)nc4)C3)C2)ccc2c1COC2=O (single isomer, unassigned) [Example 13A]
	0.285	Cc1c([C@@H](O)CN2CCC3(CCCN3S(=O)(=O)c3ccc(-n4cnnn4)cc3)C2)ccc2c1COC2=O (single isomer, unassigned) [Example 19B]

Further lines, the compound ahead of its results:

Structure (SMILES)	IC50 (Kir1.1 (ROMK1)) [µM]	IC50 (hROMK (hKir1.1)) [µM]
Cc1c([C@@H](O)CN2CCC3(CCCN3S(=O)(=O)c3ccc(-n4cnnn4)cc3)C2)ccc2c1COC2=O (single isomer, unassigned) [Example 19A]	0.046	0.29
Cc1c([C@@H](O)CN2CC3CC(C)N(C[C@H](O)c4ccc5c(c4C)COC5=O)C3C2)ccc2c1COC2=O (single isomer, unassigned) [Example 12A]	0.082	0.04
Cc1c([C@@H](O)CN2CC3CCN(C[C@H](O)c4ccc5c(c4C)COC5=O)C3C2)ccc2c1COC2=O (single isomer, unassigned) [Example 4A]		0.062
COc1cc(C(O)CN2CC3CN(C[C@H](O)c4ccc5c(c4C)COC5=O)C3C2)ncc1C#N (single isomer, unassigned) [Example 24]		0.788
